Key:
[1] = molecular target: Human cannabinoid receptor CB1R (Homo sapiens, UniProt P21554); experiment: Human cannabinoid receptor binding inhibition, [3H]CP55940, CB1R; details: read-out: Ki CB1 receptor; membranes of CB1R-expressing CHO cells, [3H]CP55940 0.5 nM
[2] = molecular target: Human cannabinoid receptor CB2R (Homo sapiens, UniProt P34972); experiment: Human cannabinoid receptor binding inhibition, [3H]CP55940, CB2R; details: read-out: Ki CB2 receptor; membranes of CB2R-expressing CHO cells, [3H]CP55940 0.5 nM
human CB2R = human CB2R (Homo sapiens, UniProt P34972); experiment: Cannabinoid receptor-mediated suppression of forskolin-stimulated cAMP synthesis, CB2R; format: cell-based; details: read-out: CB2 receptor IC50, CHO cells expressing human CB2R

Protein sequences, listed by entry. Tags and fused reporters are not part of them.
UniProt P21554, whole entry: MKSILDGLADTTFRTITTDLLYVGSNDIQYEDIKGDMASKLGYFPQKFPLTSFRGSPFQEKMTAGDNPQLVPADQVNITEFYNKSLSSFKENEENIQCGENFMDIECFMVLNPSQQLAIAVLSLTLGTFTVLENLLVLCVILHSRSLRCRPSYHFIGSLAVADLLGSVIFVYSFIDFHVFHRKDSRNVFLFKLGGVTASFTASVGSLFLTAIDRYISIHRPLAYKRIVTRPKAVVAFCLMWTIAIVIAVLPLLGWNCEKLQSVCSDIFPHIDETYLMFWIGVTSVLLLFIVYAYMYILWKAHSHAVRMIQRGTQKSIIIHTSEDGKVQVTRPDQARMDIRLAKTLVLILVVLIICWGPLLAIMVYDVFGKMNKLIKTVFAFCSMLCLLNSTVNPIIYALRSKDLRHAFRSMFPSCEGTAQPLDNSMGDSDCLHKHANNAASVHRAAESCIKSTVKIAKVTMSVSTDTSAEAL
UniProt P34972, whole entry: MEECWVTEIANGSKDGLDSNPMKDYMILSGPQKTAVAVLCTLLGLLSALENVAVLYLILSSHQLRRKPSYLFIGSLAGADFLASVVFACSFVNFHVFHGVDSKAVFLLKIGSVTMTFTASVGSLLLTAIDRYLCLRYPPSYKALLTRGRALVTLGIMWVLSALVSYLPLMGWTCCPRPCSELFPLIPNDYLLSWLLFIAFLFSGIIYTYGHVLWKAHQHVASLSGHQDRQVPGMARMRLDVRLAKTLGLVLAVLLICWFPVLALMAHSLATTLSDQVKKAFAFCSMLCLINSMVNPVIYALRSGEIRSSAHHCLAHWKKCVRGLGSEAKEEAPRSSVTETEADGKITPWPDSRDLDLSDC

SMILES | Ki [1] | Ki [2] | IC50 (human CB2R)
CCCCn1c2c(cc(C(=O)NCCc3ccccc3)c1=O)CCCCC2 | 482 nM | 6 nM | 4.2 nM
CCSc1ccccc1N=C1SCC(C)(C)CN1C(=S)SC |  | 43 nM | 
CCCCn1c2c(cc(C(=O)NCCc3ccc(F)cc3)c1=O)CCCCC2 | 551 nM | 8 nM | 4.3 nM
CCCCn1c2c(cc(C(=O)NCc3ccccc3)c1=O)CCCCCCCC2 | 124 nM | 2.5 nM | 2.3 nM
CCCCn1c2c(cc(C(=O)NCc3ccccc3)c1=O)CCCCC2 | 254 nM | 6 nM | 7.9 nM

Source: patent US20080312292A1, “Antipruritics” (priority 2002, published 2008)
